Values of other authors in patent US20250152650A1, “COMPOSITIONS FOR TREATING SEA LICE IN SALMON AND RELATED METHODS” (KEMIN INDUSTRIES, INC., priority 2023, published 2025).

System: sensitive copepodid lice
Settings: in salmon tissues (in vivo) and 24 hr bioassay baths (in vitro); cited from earlier work

Question: For “emamectin benzoate [EMB, reference compound]”, which “concentrations that appear to be lethal to sensitive copepodid lice” value is on record?
Answer: 1-10 ppb
